From patent US20260384421A1, “NOVEL COMPOUNDS THAT CAN BE USED AS THERAPEUTIC AGENTS” (published 2026) come the findings set out here.

Bounds are passed on as bounds.

This assay deals with 23132/87 cells. As to the kind of experiment: alamarBlue proliferation assay with 23132/87 cells. The following applies: read-out: Activity on 23132/87: IC50, RPMI 1640 medium, 10% FBS. From the text:
These hyperproliferative processes can be benign or malignant and include hyperplasia, neoplasia, cancer and pre-cancerous lesions, and metastases. The antiproliferative activities of compounds falling under general formula (I) were investigated on human primary epidermal keratinocytes (HPEK) and human, murine and canine cell lines derived from hyperproliferative tissue or different cancer types, including MDA-MB-231, ZR-75-30, HCC-1395, HCC-1937, and T-47D all originating from cancer of the breast, JURKAT, RPMI-8402, LOUCY, TANQUE, REC-1, HL-60, NB-4 all originating from different types of blood cancer including lymphoma and leukemia of T-cells, B-cells and myeloid cells, TT originating from cancer of the neuroendocrine system, HeLa originating from cancer of the cervix, 23132/87, SW-948, and HCT-116 all originating from cancer of the gastrointestinal tract including stomach and colon, BHY originating from cancer of the mucosal epithelium, A-431 originating from cancer of the skin, HEP-G2 originating from cancer of the liver, NCI-H460 and A-549 both originating from cancer of the lung, PANC-1 originating from cancer of the pancreas, U-87 MG originating from cancer of the brain, A-375 and RVH-421 both originating from cancer of melanocytes, SW-1353 originating from cancer of bone-derived chondrocytes, C2C12 a mouse cell line originating from hyperproliferative muscle progenitor cells, LL/2 a mouse cell line originating from cancer of the lung, CF21.T a dog cell line originating from cancer of the connective tissue. To this end, according cells were seeded into 96-well plates (CORNING #3598) suitable for fluorescence assays at following initial cell numbers: 1000 cells per well for HPEK; 3000 cells per well for MDA-MB-231, 8000 cells per well for ZR-75-30, 1500 cells per well for HCC-1395, 1500 cells per well for HCC-1937, 3000 cells per well for T-47D, 1500 cells per well for JURKAT, 5000 cells per well for RPMI-8402, 9000 cells per well for LOUCY, 1500 cells per well for TANQUE, 9000 cells per well for REC-1, 1000 cells per well for HL-60, 1000 cells per well for NB-4, 9000 cells per well for TT, 2000 cells per well for HeLa, 2000 cells per well for 23132/87, 9000 cells per well for SW-948, 700 cells per well for HCT-116, 1500 cells per well for BHY, 700 cells per well for A-431, 1500 cells per well for HEP-G2, 500 cells per well for NCI-H460, 1000 cells per well for A-549, 1500 cells per well for PANC-1, 2500 cells per well for U-87 MG, 700 cells per well for A-375, 1500 cells per well for RVH-421, 2000 cells per well for SW-1353, 500 cells per well for C2C12, 500 cells per well for LL/2, and 3000 cells per well for CF21.T. In a volume of 90 μL per well of culture medium the cells were treated with compounds at indicated final concentrations by adding 10 μL per well of 10× compound working solutions from 1:100 pre-diluted 1000× compound DMSO stock-solutions in H2O (Water For Injection, WFI, Fisher Scientific, Gibco™ #A12873) or with the empty carrier DMSO (AppliChem, #A3672) at 0.1% v/v as control yielding a final volume of 100 μL per well. At day 5 after starting the treatments the cells were subjected to the alamarBlue® Proliferation Assay (Bio-Rad Serotec GmbH, BUF012B) according to the protocol of the manufacturer. The readout was taken with a multi-well plate-reader (Tecan Spark®) in the fluorescence mode with applying a filter for excitation at 560 nm (band width 10 nm) and for emission at 590 nm (band width 10 nm). Treatment for maximum proliferation inhibition with the commercial cytotoxic compound (S)-(+)-camptothecin (Fluorochem #M01564) at a concentration of 10 μM was included on each plate for assay quality control. Some of the test compounds of the present invention may have been obtained and applied as their salt forms.
The assays were performed in duplicate or more replicates of independent single experiments each containing a three- to six-fold replicate for every condition. […]

`COC1CCC(c2ccc(Oc3ccc(C(=O)N4CCN(Cc5ccc(Cl)cn5)CC4)cc3)c(CO)c2)CC1` (stereo not shown): the IC50 is at most 5 µM.
